Assay results: PMC9959982 (International Journal of Molecular Sciences, 2023)

Test system: MT-4 cells
Assay: Cytotoxicity in MT-4 cells (MTS/PES)
Conditions: 50% reduction in cell viability, 5 days

dextran sulfate-5000 [DS-5000]
CC50: > 20 µM
